Molecular target: T1, HLA-DRB1*11:01 (human)
T1 construct: MHC class II molecule; how it was prepared for the assay is not described
Experiment: HLA class II competition binding assay

IC50: 6.99 µM
Binder: TLTAFGFASADLIEI [ApoB100 peptide 3563.0005]
